Measurements taken from paper PMC9481557, “Enzymatic synthesis of benzylisoquinoline alkaloids using a parallel cascade strategy and tyrosinase variants” (Nature Communications, 2022).

Tested on: N[C@@H](Cc1ccc(O)cc1)C(=O)O
Test: cells, lysate or membranes
Conditions: apparent constant; N201S variant; copper enzyme; assay details in supplement

Substance: CnTYR (Candidatus Nitrosopumilus salarius BD31; N201S)
- Km: 1890 µM
- kcat: 182.9 s⁻¹
